Assay results: patent publication US20160256560A1, “Environmentally Sensitive Compositions” (priority 2010, published 2016)

How the values were obtained:
[1] = pH 5.5
[2] = pH 8

| Substance | Log P (octanol-water partition coefficient) [1] | Log P [2] |
| --- | --- | --- |
| Phallacidin-(CH2)n—SH, n=6 [phallC6SH] | −0.09 | – |
| biotin-dPeg3-maleimide [biotin-Peg] | – | -1.39 |
